Measurements as given in ChEMBL document CHEMBL1147596, “Subtype selective NMDA receptor antagonists: evaluation of some novel alkynyl analogues” (Bioorg Med Chem Lett, 2004).

By UniProt entry, the sequences of proteins in these tests, tags left out.
UniProt Q00960, whole entry: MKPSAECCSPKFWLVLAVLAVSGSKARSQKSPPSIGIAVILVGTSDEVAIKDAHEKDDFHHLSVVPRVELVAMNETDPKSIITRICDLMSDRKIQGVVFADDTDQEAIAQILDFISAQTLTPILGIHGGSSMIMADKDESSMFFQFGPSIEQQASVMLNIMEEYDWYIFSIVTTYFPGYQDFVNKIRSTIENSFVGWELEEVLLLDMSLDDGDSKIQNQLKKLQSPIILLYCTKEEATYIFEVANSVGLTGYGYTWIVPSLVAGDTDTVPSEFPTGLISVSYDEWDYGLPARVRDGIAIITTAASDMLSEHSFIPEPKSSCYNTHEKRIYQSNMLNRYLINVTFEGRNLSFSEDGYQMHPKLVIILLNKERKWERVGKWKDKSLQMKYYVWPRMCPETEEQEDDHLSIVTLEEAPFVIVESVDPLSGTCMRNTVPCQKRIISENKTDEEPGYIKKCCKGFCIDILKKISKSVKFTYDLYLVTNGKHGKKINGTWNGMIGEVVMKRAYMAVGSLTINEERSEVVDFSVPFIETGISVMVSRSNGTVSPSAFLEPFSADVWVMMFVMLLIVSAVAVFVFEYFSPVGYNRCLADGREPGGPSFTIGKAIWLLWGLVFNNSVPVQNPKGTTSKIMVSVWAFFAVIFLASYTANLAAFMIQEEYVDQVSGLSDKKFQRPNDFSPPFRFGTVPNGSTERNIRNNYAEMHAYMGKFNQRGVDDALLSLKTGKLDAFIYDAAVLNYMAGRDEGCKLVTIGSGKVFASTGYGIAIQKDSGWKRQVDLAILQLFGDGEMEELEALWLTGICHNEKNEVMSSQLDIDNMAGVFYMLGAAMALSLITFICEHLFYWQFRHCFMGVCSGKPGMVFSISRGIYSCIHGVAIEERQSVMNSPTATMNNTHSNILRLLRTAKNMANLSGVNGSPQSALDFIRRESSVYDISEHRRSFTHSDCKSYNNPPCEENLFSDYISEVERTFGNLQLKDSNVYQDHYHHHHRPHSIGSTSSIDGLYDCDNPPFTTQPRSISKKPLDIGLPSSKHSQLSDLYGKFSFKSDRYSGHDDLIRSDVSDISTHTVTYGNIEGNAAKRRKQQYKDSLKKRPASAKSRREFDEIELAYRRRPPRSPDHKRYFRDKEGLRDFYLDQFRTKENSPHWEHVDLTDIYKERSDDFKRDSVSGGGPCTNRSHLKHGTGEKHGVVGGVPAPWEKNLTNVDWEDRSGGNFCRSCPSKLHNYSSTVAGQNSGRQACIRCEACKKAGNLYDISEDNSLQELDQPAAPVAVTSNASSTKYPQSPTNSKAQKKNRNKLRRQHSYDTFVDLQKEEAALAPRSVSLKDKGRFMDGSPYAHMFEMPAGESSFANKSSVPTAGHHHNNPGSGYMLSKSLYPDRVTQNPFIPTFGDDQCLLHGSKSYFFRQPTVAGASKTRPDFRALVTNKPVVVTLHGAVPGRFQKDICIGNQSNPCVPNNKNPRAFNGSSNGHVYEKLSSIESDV

Target: Glutamate NMDA receptor; Grin1/Grin2b (Rattus norvegicus, UniProt P35439+Q00960)
Assay: Binding affinity against NR1A/2B receptor in rat brains by [3H]ifenprodil displacement.
Format: tissue-based, Brain

IC50: 3 nM
Compound: Oc1nc2cc(C#CCN3CCC(Cc4ccc(F)cc4)CC3)ccc2[nH]1
